Tests used:
[1] = molecular target: Recombinant human CSF1R kinase (Homo sapiens (Human), UniProt P07333); details: Z-LYTE Tyr 1 peptide substrate
[2] = system: Ba/F3^BCR-FMS-11 cells; test: Cell proliferation experiment (Ba/F3^BCR-FMS-11, cckit-8); details: Ba/F3^BCR-FMS-11 cell proliferation, 72 hours
Experimental: Cell Proliferation Experiment
Ba/F3^BCR-FMS-11, mouse primary B lymphocytes stably expressing the BCR-FMS fusion gene. The cells were cultured in an RPMI 1640 medium containing 10% FBS.
2. Reagents and instruments
• cckit-8 kit: Dojindo, 9 CK04; • Envision: Perkin Elmer; • Cell culture plate: Facol, 9353027. 3. Experimental steps
The BCR-FMS fusion gene was transfected into Ba/F3 cells, and the cell line Ba/F3^BCR-FMS-11 that stably expresses BCR-FMS and grows depending on CSF-1R was screened. Ba/F3^BCR-FMS-11 cell proliferation experiments is completed by using the Cell Counting kit cckit-8 in a 96-well plate. In a 96-well plate, 5000/well of Ba/F3^BCR-FMS-11 cells were inoculated at 100 μL/well. After 24 hours, the test compound was diluted to 10, 3.33, 1.11, 0.37, 0.12, 0.037, 0.012, and 0.004 μM, the concentration of DMSO was kept at 5%. […] The optical density absorption value at 450 nm of each well was detected by using Perkin Elmer Envision instrument.
wherein • Drug-treated well read-out: indicating the optical density signal of a cell well with the test compound treatment. • Cell well read-out: indicating the optical density signal of a cell well not treated with the test compound (only 0.5% DMSO). • Background read-out: indicating the optical density signal of a well with the cell medium. […]

Sequences of proteins named here, by UniProt entry; tags and fusion partners are left off. Residues count along the entry.
UniProt P07333, 20-972 limits assumed: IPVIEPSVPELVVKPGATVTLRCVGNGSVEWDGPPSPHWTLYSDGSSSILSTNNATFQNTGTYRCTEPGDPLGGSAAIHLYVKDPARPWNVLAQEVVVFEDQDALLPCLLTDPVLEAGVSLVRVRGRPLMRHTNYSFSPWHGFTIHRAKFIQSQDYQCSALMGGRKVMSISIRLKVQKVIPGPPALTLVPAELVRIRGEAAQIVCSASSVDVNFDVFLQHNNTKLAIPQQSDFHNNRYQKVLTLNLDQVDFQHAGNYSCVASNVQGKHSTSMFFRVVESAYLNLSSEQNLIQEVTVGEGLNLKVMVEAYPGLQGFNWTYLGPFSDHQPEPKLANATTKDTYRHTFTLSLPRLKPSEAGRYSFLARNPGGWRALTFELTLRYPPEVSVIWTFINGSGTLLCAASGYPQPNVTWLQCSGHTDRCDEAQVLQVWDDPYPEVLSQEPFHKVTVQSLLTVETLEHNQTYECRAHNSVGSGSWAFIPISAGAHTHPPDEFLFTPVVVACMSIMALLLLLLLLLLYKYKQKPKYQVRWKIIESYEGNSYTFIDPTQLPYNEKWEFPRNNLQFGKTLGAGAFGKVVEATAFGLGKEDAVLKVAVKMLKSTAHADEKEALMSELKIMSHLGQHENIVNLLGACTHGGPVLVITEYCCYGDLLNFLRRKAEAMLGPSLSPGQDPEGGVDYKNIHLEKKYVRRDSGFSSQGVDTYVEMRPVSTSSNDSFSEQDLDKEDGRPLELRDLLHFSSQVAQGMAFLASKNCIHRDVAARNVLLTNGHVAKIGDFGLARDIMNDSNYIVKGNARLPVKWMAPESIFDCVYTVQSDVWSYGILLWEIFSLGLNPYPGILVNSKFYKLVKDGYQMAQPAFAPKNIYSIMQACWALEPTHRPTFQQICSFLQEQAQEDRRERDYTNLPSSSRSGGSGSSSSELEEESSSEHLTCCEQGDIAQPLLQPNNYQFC

[3] = molecular target: CSF1R phosphorylation in THP-1 cells (Homo sapiens (Human), UniProt P07333); test: Detection of CSF1R phosphorylation activity at cell level (THP-1, M-CSF stimulated, ELISA); details: p-CSF1R ELISA, compound 60 min, 300 ng/mL M-CSF 1 min

CC(C)n1cccc(C(=O)Nc2ccc(Oc3ccnc(-c4cnn(C)c4)c3)cc2)c1=O
IC50 [1]: 19 nM | IC50 [2]: 72 nM | IC50 [3]: 256 nM

Cn1ccc(-c2cc(Oc3ccc(NC(=O)c4cccn(C5COC5)c4=O)nc3)ccn2)c1
IC50 [1]: 17 nM | IC50 [2]: 11 nM | IC50 [3]: 26 nM
